Source: patent US10125134B2 (Mirati Therapeutics, Inc., priority 2016, dated 2018)

Molecular target: KRas G12C (Homo sapiens, UniProt P01116, C118S/C51S/C80L/G12C)
Experiment: KRas G12C Modification Assay (LCMS detection of covalent adduct)
Type: binding
Conditions: normalized percent of control; tested at 5 μM concentration for 3 hours

SMILES | POC
C=CC(=O)N1CCN(c2nc(OC[C@@H]3CCCN3C)nc3c2CCN(c2cc(O)cc4ccccc24)C3)CC1 [Example 127, (S)-1-(4-(7-(3-hydroxynaphthalen-1-yl)-2-((1-methylpyrrolidin-2-yl)methoxy)-5,6,7,8-tetrahydropyrido[3,4-d]pyrimidin-4-yl)piperazin-1-yl)prop-2-en-1-one] | C (“C”>50% POC)
C=CC(=O)N1CCN(c2nc(OC[C@H]3CCCN3C)nc3c2CCN(c2cc(O)cc4ccccc24)C3)CC1 [Example 187, (R)-1-(4-(7-(3-hydroxynaphthalen-1-yl)-2-((1-methylpyrrolidin-2-yl)methoxy)-5,6,7,8-tetrahydropyrido[3,4-d]pyrimidin-4-yl)piperazin-1-yl)prop-2-en-1-one] | C (“C”>50% POC)
C=CC(=O)N1CCN(c2nc(OC[C@@H]3CCCN3C)nc3c2CCN(c2cccc4ccccc24)C3)CC1 [Example 200, (S)-1-(4-(2-((1-methylpyrrolidin-2-yl)methoxy)-7-(naphthalen-1-yl)-5,6,7,8-tetrahydropyrido[3,4-d]pyrimidin-4-yl)piperazin-1-yl)prop-2-en-1-one] | C (“C”>50% POC)
